In ChEMBL document CHEMBL1139291, “Syntheses and opioid receptor binding properties of carboxamido-substituted opioids” (Bioorg Med Chem Lett, 2009):

Assays:
[1] = tested on: CHO; assay: Ratio of Ki for human delta opioid receptor to Ki for human kappa opioid receptor expressed in CHO cells; format: cell-based
[2] = tested on: CHO; assay: Ratio of Ki for human mu opioid receptor to Ki for human kappa opioid receptor expressed in CHO cells; format: cell-based

## CO[C@@]12CC[C@@]3(C[C@@H]1[C@@](C)(O)C(C)(C)C)[C@H]1Cc4ccc(C(N)=O)c5c4[C@@]3(CCN1CC1CC1)[C@H]2O5
[1]
  Ratio Ki: 26
[2]
  Ratio Ki: 0.4
